Data: PMC2832585 (Bioorganic & medicinal chemistry, 2009)

Molecular target: human β2-adrenergic receptors (Homo sapiens, UniProt P07550)
Assay: β2-AR mediated stimulation of cAMP accumulation in HEK cells
Settings: for % Stimulation: induced stimulation of cAMP accumulation, HEK cells containing human β2-AR

SMILES | % Stimulation | agonist classification with respect to cAMP stimulation
COc1ccc(C[C@@H](C)NC[C@H](O)c2cc(O)cc(O)c2)cc1 [(R,R)-2, (R,R)-methoxyfenoterol] | 136 ± 11% | 
COc1ccc(C[C@H](C)NC[C@H](O)c2cc(O)cc(O)c2)cc1 [(R,S)-2] | 120 ± 19% | 
CC[C@H](Cc1ccc(O)cc1)NC[C@H](O)c1cc(O)cc(O)c1 [(R,R)-52, (R,R-(−)-5-(1-Hydroxy-2-(1-hydroxyphenyl)butan-2-ylamino)ethyl) benzene-1,3-diol] |  | full β2-AR agonists
